pKi: −log10 of the molar value.

In the assay the target is T1, 5-hydroxytryptamine receptor 2C (Rattus norvegicus, UniProt P08909).
T1 sequence (P08909 whole entry): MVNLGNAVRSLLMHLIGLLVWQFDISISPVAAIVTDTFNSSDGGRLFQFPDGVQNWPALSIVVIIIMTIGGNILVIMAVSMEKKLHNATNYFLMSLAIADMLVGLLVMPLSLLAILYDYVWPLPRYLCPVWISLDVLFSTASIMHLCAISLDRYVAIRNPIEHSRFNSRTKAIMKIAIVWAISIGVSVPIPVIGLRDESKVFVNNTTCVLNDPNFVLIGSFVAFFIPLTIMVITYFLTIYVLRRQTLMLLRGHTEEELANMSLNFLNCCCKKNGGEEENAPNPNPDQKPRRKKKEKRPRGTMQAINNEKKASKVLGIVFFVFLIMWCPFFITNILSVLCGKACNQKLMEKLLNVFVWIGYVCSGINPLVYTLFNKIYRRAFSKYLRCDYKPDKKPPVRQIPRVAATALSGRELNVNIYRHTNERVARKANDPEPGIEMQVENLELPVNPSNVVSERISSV
The assay is described as follows: The compound was tested for the binding affinity against 5-hydroxytryptamine 2C receptor using [3H]Mesulergine as radioligand.

`CN1C[C@@H](NS(=O)(=O)N(C)C)C[C@@H]2c3cccc4c3c(cn4C)C[C@H]21` [MESULERGINE] showed a negative-log Ki (pKi) of 8.80.

The pKi is the Ki on a negative log10 scale, so that one unit is a factor of ten. Higher therefore signals a small Ki.
